HCMV UL50-53 inh – cytomegalovirus nuclear egress complex inhibition; HTRF UL50-UL53 interaction, normalized percent inhibition; inhibition, % (concentration not given with the values); actives 0.15% (n = 190,000); AID 1918969; in the data active means inhibition above about 27%, passing the limit was not always enough
GIV-Gai inh – blocks GIV peptide binding to rat Galpha-i3; P08753; Galpha-i3/FITC-GIV peptide fluorescence polarization, 90 min; stronger effect = lower value; scaled: aluminum fluoride 0%, vehicle 100%; percent of control (FP), % (no concentration beside the values); 210,000 tested, 0.42% active; AID 1224905;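 active = replicate mean at 85% of control or lower, very high polarization wells dropped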;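 also: wells of about 15 µL received 100 nL stock; the first replicate is given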
GIV Gai FP conf – confirmation of inhibitors of GIV binding to rat Galpha-i3; fluorescence polarization, mP at 100 µM; actives 38% (n = 580); FITC-GIV peptide binding to Galphai3, fluorescence polarization; active compounds read low; shares compounds with GIV-Gai inh;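 active means inhibition score of 15 or more, meaning 100 minus mean polarization as percent of control over three replicates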;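 further: lower mP means peptide displaced from Galphai3 so more inhibition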
GIV Gai AS conf – GIV-Galpha-i3 inhibition, AlphaScreen confirmation; shares compounds with GIV-Gai inh; AlphaScreen Galphai3-GIV binding, purified proteins, 90 min; active compounds read low; AlphaScreen counts at 100 µM; actives 39% (n = 580);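 active means inhibition score at or above a set limit, where the score is 100 minus the three-replicate mean percent of control signal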
Numbers without * were called inactive; . = no result given; ! = not confirmed by another sample. This is a sample that favours compounds with a hit; in the whole collection about 0.46% have one here.

#1 Cc1noc(C)c1COC(=O)/C=C/c1cn(-c2ccccc2)nc1-c1cc2ccccc2oc1=O
#2 CCn1cc(/C=C2/C(=O)N(c3ccccc3)N=C2C)c2ccccc21
#3 CCn1cc(/C=C2/C(=O)N(c3ccccc3)c3ccccc32)c2ccccc21
#4 CCc1ccc(C(=O)NC(Cc2c[nH]c3ccccc23)C(=O)OCC(=O)c2ccccc2)cc1 (stereo not given)
#5 CCc1ccc(C(=O)NC(Cc2c[nH]c3ccccc23)C(=O)OCC(=O)c2ccc(OC)cc2)cc1 (stereo not given)
#6 Cn1cnnc1-c1cccc(NC(=O)Nc2cccc3ccccc23)c1
#7 CN1CCN(c2nc(C#N)c(C#N)nc2C(C#N)=C2Nc3ccccc3N2)CC1
#8 CCN1/C(=C(\C#N)c2nc(C#N)c(C#N)nc2N2CCOCC2)Nc2ccccc21
#9 Cn1nc2c(c1N)CCC2
#10 COc1ccc2ncc(C(=O)O)c(NCCO)c2c1

entry no.	1	2	3	4	5	6	7	8	9	10
HCMV UL50-53 inh	13	-41	.	.	.	-68	-24	-7	13	-58
GIV-Gai inh	.	.	53*	85*	104	101	100	67*	.	96
GIV Gai FP conf	.	.	69	61	.	.	.	75	.	.
GIV Gai AS conf	.	.	38150	46081	.	.	.	32831	.	.

Sorted by value in GIV Gai FP conf (largest number first): 3 from the list above
no. | Compound | GIV Gai FP conf
8 | CCN1/C(=C(\C#N)c2nc(C#N)c(C#N)nc2N2CCOCC2)Nc2ccccc21 | 75
3 | CCn1cc(/C=C2/C(=O)N(c3ccccc3)c3ccccc32)c2ccccc21 | 69
4 | CCc1ccc(C(=O)NC(Cc2c[nH]c3ccccc23)C(=O)OCC(=O)c2ccccc2)cc1 (stereo not given) | 61

(continued)
#11 CCn1cc(C(=O)NCC(OC)OC)c(=O)c2cc(S(=O)(=O)N3CC(C)CC(C)C3)ccc21 (stereo not given)
#12 CCOC(=O)c1c(-c2ccc(Br)cc2)csc1/N=C/c1c(C)[nH]n(-c2ccccc2)c1=O
#13 CCOC(=O)c1c(-c2ccc(Br)cc2)csc1/N=C/C1C(=O)NC(=S)NC1=O
#14 CCOc1cc(C(c2c(C)[nH]n(-c3ccccc3)c2=O)c2c(C)[nH]n(-c3ccccc3)c2=O)ccc1OCc1ccc(Cl)cc1
#15 Cc1[nH]n(-c2ccccc2)c(=O)c1C(c1ccccc1O)c1c(C)[nH]n(-c2ccccc2)c1=O
#16 Cc1ccc(C(c2c(C)[nH]n(-c3ccccc3)c2=O)c2c(C)[nH]n(-c3ccccc3)c2=O)cc1
#17 Cc1[nH]n(-c2ccccc2)c(=O)c1C(c1ccc(F)cc1)c1c(C)[nH]n(-c2ccccc2)c1=O
#18 CCOc1cc(C(c2c(C)[nH]n(-c3ccccc3)c2=O)c2c(C)[nH]n(-c3ccccc3)c2=O)ccc1O
#19 COc1ccc(C(c2c(C)[nH]n(-c3ccccc3)c2=O)c2c(C)[nH]n(-c3ccccc3)c2=O)cc1OC
#20 COc1ccc(C(c2c(C)[nH]n(-c3ccccc3)c2=O)c2c(C)[nH]n(-c3ccccc3)c2=O)cc1

entry no.	11	12	13	14	15	16	17	18	19	20
HCMV UL50-53 inh	1	-10	.	.	.	.	.	40	.	.
GIV-Gai inh	110	75*	90	81*	67*	107	72*	113	76*	91
GIV Gai FP conf	.	68	.	52*	64	.	61	.	44*	.
GIV Gai AS conf	.	41072	.	31576	17967*	.	24882*	.	4694*	.

#21 Cc1[nH]n(-c2ccccc2)c(=O)c1C(c1cc(Cl)ccc1O)c1c(C)[nH]n(-c2ccccc2)c1=O
#22 Cc1cccc(C(=O)Nc2ccc3c(c2)CCC(=O)N3)c1
#23 O=C1/C(=C/c2ccc(Cl)cc2)C=C(c2ccccc2)N1c1ccc(Cl)cc1
#24 O=C1/C(=C/c2ccc(Cl)cc2)C=C(c2ccccc2)N1c1ccccc1
#25 CCc1ccc(C2=CC(c3sccc3C)n3ncnc3N2)cc1 (stereo not given)
#26 Cc1ccsc1C1C=C(c2cccc(Br)c2)Nc2ncnn21 (stereo not given)
#27 Cc1ccc(C(=O)NCCn2ccc3ccccc32)cc1
#28 O=C(NCCn1ccc2ccccc21)c1ccc(F)cc1
#29 O=C(O)COc1ccc2oc(=O)c3c(c2c1)CCC3
#30 Nc1cc(N)c2cc(-c3ccccc3)oc2c1

entry no.	21	22	23	24	25	26	27	28	29	30
HCMV UL50-53 inh	-23	-22	.	.	.	.	.	.	-32	95*
GIV-Gai inh	100	105	82*	125	104	81*	94	60*	.	81*
GIV Gai FP conf	.	.	103	.	.	47*	.	64	.	66
GIV Gai AS conf	.	.	40363	.	.	49839	.	37703	.	30925

A different layout for some results above.
Values run as follows: HCMV UL50-53 inh | GIV-Gai inh | GIV Gai FP conf | GIV Gai AS conf
22	Cc1cccc(C(=O)Nc2ccc3c(c2)CCC(=O)N3)c1
→ -22 | 105 | . | .
15	Cc1[nH]n(-c2ccccc2)c(=O)c1C(c1ccccc1O)c1c(C)[nH]n(-c2ccccc2)c1=O
→ . | 67* | 64 | 17967*

(further entries)
#31 O=c1cc(-c2ccccc2)oc2cc(Cl)ccc12
#32 c1ccc(N2CCN(c3nnc(-n4cccc4CN4CCN(c5ccccn5)CC4)s3)CC2)cc1
#33 O=C(O)c1ccc(-n2ncc(Cl)c(Cl)c2=O)cc1
#34 CC(=O)Nc1cnn(-c2ccccc2)c(=O)c1Cl
#35 O=C(C1CCCN(S(=O)(=O)c2cccc3nsnc23)C1)N1CCC(Cc2ccccc2)CC1 (stereo not given)
#36 COc1cc(/C=C2/C(=O)N(c3ccccc3)N=C2C)ccc1OS(=O)(=O)c1ccccc1
#37 COc1cc(/C=C2\C(=O)N(c3ccc(S(N)(=O)=O)cc3)N=C2C)ccc1OCc1ccccc1
#38 O=c1[nH]c(Cc2ccccc2)nc2c1C1(CCCC1)Cc1ccccc1-2
#39 COc1ccc(-c2cc(Oc3cccc(C(=O)Nc4cccc(F)c4)c3)ncn2)cc1
#40 Cc1sc2nc(/C=C/c3ccco3)oc(=O)c2c1C

entry no.	31	32	33	34	35	36	37	38	39	40
HCMV UL50-53 inh	-8	5	-19	-57	-55	42*	.	.	.	-9
GIV-Gai inh	.	101	78*!	104	98	81*	100	107	106	79*
GIV Gai FP conf	.	.	62	.	.	60*	.	.	.	60
GIV Gai AS conf	.	.	39055	.	.	21149*	.	.	.	46890

#41 Cc1sc2nc(-c3cccs3)oc(=O)c2c1C
#42 Cn1c(=O)n(CCC(=O)N2CCCC2)c(=O)c2cc(S(=O)(=O)NC3CC3)ccc21
#43 COc1ccc(/C(O)=C/c2nc3cc(C)ccc3oc2=O)c(OC)c1
#44 Cc1ccc2oc(=O)c(/C=C(\O)c3ccco3)nc2c1
#45 O=C(NCCc1ccccc1)c1sc(=S)n2c1[nH]c(=O)c1ccccc12
#46 O=C(NC1CCCCC1)c1sc(=S)n2c1[nH]c(=O)c1ccccc12
#47 CNS(=O)(=O)c1cccc(C(=O)NCc2ccccc2)c1
#48 CCCSc1nnc2c(n1)OC(c1ccccc1)Nc1ccccc1-2 (stereo not given)
#49 CSc1nnc2c(n1)OC(/C=C/c1ccccc1[N+](=O)[O-])Nc1ccccc1-2 (stereo not given)
#50 CCSc1nnc2c(n1)OC(c1cc(Br)ccc1OC)Nc1ccccc1-2 (stereo not given)

entry no.	41	42	43	44	45	46	47	48	49	50
HCMV UL50-53 inh	0	.	-23	-24	.	-43	-37	-12	3	-4
GIV-Gai inh	.	111	54*	109	86	101	.	109	105	106
GIV Gai FP conf	.	.	147	.	65	.	.	.	.	.
GIV Gai AS conf	.	.	40985	.	13551*	.	.	.	.	.

#51 CCCSc1nnc2c(n1)OC(c1ccccc1OCC(=O)OCC)Nc1ccccc1-2 (stereo not given)
#52 CCCSc1nnc2c(n1)OC(c1ccco1)Nc1ccccc1-2 (stereo not given)
#53 CCCCSc1nnc2c(n1)OC(/C=C/c1ccccc1[N+](=O)[O-])Nc1ccccc1-2 (stereo not given)
#54 CCSc1nnc2c(n1)OC(c1ccc(Br)cc1)Nc1ccccc1-2 (stereo not given)
#55 CCOC(=O)COc1ccccc1C1Nc2ccccc2-c2nnc(SC)nc2O1 (stereo not given)
#56 Cc1cc(Cl)cc(C)c1OCC1COS(=O)O1 (stereo not given)
#57 CC(C)OC(=O)CN1C(=O)c2ccc(C(=O)OC(C)C)cc2C1=O
#58 CC(C)(O)C(=O)/C=C/c1ccc2c(c1)OCO2
#59 CCN(CC)C(=O)/C=C/c1ccc2c(c1)OCO2
#60 NC(=O)CSc1nsc(SCC(N)=O)n1

entry no.	51	52	53	54	55	56	57	58	59	60
HCMV UL50-53 inh	-16	-36	-31	-10	-26	-3	.	-4	.	-57
GIV-Gai inh	21*	78*	80*	24*	105	94	94	84*	102	97
GIV Gai FP conf	59	60	60	30*	.	.	.	69	.	.
GIV Gai AS conf	34096*	5688*	33401*	29425	.	.	.	27857*	.	.
